# Ab-14 light chain CDR variants: yeast mating affinities

Reference: Engelhart et al. 2022, doi:10.1038/s41597-022-01779-4. File: FLAb, binding data.

All variants were tested on one target, the spike HR2 peptide PDVDLGDISGINAS (SARS-CoV-2).

The variants keep the heavy chain, the linker and the frameworks of Ab-14 (scFv order VH, three GGGGS repeats, VL).
VH: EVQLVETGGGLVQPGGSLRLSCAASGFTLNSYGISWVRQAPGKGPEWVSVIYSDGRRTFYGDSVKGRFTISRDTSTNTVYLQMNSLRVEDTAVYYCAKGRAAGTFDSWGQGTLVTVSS
VL: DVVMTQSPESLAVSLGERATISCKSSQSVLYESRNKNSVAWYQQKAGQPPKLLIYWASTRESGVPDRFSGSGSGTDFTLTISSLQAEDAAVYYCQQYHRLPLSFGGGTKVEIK

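The parent was found by panning a naive human phage display library on the peptide. Library AAYL50 holds single substitutions and randomly drawn double and triple substitutions in the CDRs. Affinity was read by AlphaSeq, a pooled yeast mating assay with surface-displayed partners. Binding brings cells together so that they mate, and sequencing counts the barcode pairs among the diploids. Read counts were normalised to the haploid input and turned into Kd by a linear fit to BCL2-family pairs of known affinity, for each replicate. There are three technical replicates.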

Substitutions are numbered in sequence along the VL above, starting at 1 (not Kabat). All variants listed here change Q95 of the VL, counted from its first residue. Kd is apparent (estimated from mating counts) and averaged on the log scale over replicates with a signal. Smaller is tighter. "nd" means that the variant was in the library but no mating with the target was seen in any replicate; the authors take this as a sign of poor binding, and no number exists.

- A57S+Q95G+S103Y = nd (0 of 3 replicates; controls 0 of 9)
- R34E+Q95Y = 200 nM (3 of 3 replicates; controls 3 of 9)
- S33Y+R60P+Q95E = nd (0 of 3 replicates; controls 0 of 9)
- A57P+Q95C+H98V = nd (0 of 3 replicates; controls 2 of 9)
- N35Y+Q95R+Q96L = 9.4 µM (1 of 3 replicates; controls 1 of 9)
- V29I+R34Y+Q95A = 160 nM (3 of 3 replicates; controls 1 of 9)
- S62D+Q95V+S103C = nd (0 of 3 replicates; controls 0 of 9)
- E61W+Q95T+Y97K = nd (0 of 3 replicates; controls 0 of 9)
- R34I+S62T+Q95R = nd (0 of 3 replicates; controls 0 of 9)
- Q95M = 7.1 nM (3 of 3 replicates; controls 0 of 9)
- V39L+A40Q+Q95K = 890 µM (1 of 3 replicates; controls 2 of 9)
- Q27N+Q95W+Y97F = 5.9 µM (3 of 3 replicates; controls 8 of 9)
- K36P+S38T+Q95R = 1.0 µM (1 of 3 replicates; controls 1 of 9)
- E61A+Q95N+L102T = 13 µM (2 of 3 replicates; controls 5 of 9)
- Q95P+Y97P+L100K = 2.2 µM (1 of 3 replicates; controls 0 of 9)
- L30V+A57C+Q95F = 870 µM (2 of 3 replicates; controls 3 of 9)
- S33Y+S38K+Q95H = nd (0 of 3 replicates; controls 0 of 9)
- S58A+Q95V = 30 nM (3 of 3 replicates; controls 0 of 9)
- S62F+Q95H+R99V = 7.1 nM (3 of 3 replicates; controls 4 of 9)
- S28E+Q95N+S103E = 94 µM (2 of 3 replicates; controls 2 of 9)
- V39P+T59G+Q95T = nd (0 of 3 replicates; controls 0 of 9)
- Y31F+R60S+Q95Y = 610 nM (1 of 3 replicates; controls 1 of 9)
- S33L+A57M+Q95D = nd (0 of 3 replicates; controls 0 of 9)
- K24N+S38F+Q95N = nd (0 of 3 replicates; controls 1 of 9)
- S62T+Q95M+Y97V = 57 nM (3 of 3 replicates; controls 0 of 9)
- K24Q+S58V+Q95T = 18 µM (3 of 3 replicates; controls 4 of 9)
- S28I+E61F+Q95E = 1.7 µM (1 of 3 replicates; controls 0 of 9)
- R60W+Q95N+S103M = 3.1 µM (2 of 3 replicates; controls 3 of 9)
- L30Y+Q95K+H98A = nd (0 of 3 replicates; controls 2 of 9)
- S33H+R60N+Q95R = 6.6 µM (1 of 3 replicates; controls 2 of 9)
- E32S+Q95A+Y97E = 8.7 µM (1 of 3 replicates; controls 3 of 9)
- Q95V+L100W+P101I = 340 µM (1 of 3 replicates; controls 3 of 9)
- A57G+Q95G = 280 nM (3 of 3 replicates; controls 4 of 9)
- K24F+Y31D+Q95I = 64 nM (3 of 3 replicates; controls 1 of 9)
- S33P+Q95M = 72 nM (3 of 3 replicates; controls 4 of 9)
- A40D+E61F+Q95K = nd (0 of 3 replicates; controls 0 of 9)
- R34K+K36Q+Q95N = 1.4 nM (3 of 3 replicates; controls 3 of 9)
- R60N+Q95C+L100M = 35 µM (1 of 3 replicates; controls 1 of 9)
- R34Y+E61F+Q95H = nd (0 of 3 replicates; controls 0 of 9)
- Q95I+S103G = nd (0 of 3 replicates; controls 0 of 9)
- A57Y+Q95A+P101H = 310 nM (1 of 3 replicates; controls 2 of 9)
- Q95L = 100 nM (3 of 3 replicates; controls 1 of 9)

Picked from the list: the 2 lowest averages where every replicate gave a value.

changes,Kd (apparent),seen in,control signals
R34K+K36Q+Q95N,1.4 nM,3 of 3,3 of 9
S62F+Q95H+R99V,7.1 nM,3 of 3,4 of 9

Parent in this assay: reference entry 4.4 nM, copy in this library 48 nM. As a blank, each scFv also met three strains without target: over library AAYL50, 18% of these pairings were detected, typically at 15 µM and seldom below 970 nM. For each scFv, signals with the empty controls are counted beside the result.